This is an account of results in patent US20230404929A1, “Intradermal Delivery of Extracellular Vesicle-Encapsulated Curcumin Using Dissolvable Microneedle Arrays” (priority 2020, published 2023).

The conditions of this data set: buffer.

On to “albumin-curcumin: curcumin conjugated to albumin”, for which the “curcumin remaining stable up to day 7” value is “about 8%”. This substance also yielded a curcumin remaining stable (3 h) of 60%.
